# According to ChEMBL document CHEMBL4411302, “Aryl H-phosphonates. 19. New anti-HIV pronucleotide phosphoramidate diesters containing amino- and hydroxypyridine auxiliaries” (Eur J Med Chem, 2019):
# Experiment: Cytotoxicity against human CEM-T4 cells assessed as reduction in cell viability after 7 days by MTT assay
# Assay type: cell-based
# Settings: 168 h
row,Structure (SMILES),CC50
1,Cc1cn([C@H]2C[C@H](N=[N+]=[N-])[C@@H](COP(=O)(Nc3ccccn3)Oc3ccccn3)O2)c(=O)[nH]c1=O (some centres undefined),97 µM
2,Cc1cn([C@H]2C[C@H](N=[N+]=[N-])[C@@H](COP(=O)(Nc3ccccn3)Oc3ccccc3)O2)c(=O)[nH]c1=O (some centres undefined),> 135 µM
3,Cc1cn([C@H]2C[C@H](N=[N+]=[N-])[C@@H](COP(=O)(Nc3ccccn3)Oc3ccncc3)O2)c(=O)[nH]c1=O (some centres undefined),Nd(Unstable)
4,Cc1cn([C@H]2C[C@H](N=[N+]=[N-])[C@@H](COP(=O)(Nc3ccccn3)Oc3cccnc3)O2)c(=O)[nH]c1=O (some centres undefined),79 µM
